Amino acid sequences for entries named in this document (tags omitted). Residues count along the entry.
UniProt P00760, 24-246: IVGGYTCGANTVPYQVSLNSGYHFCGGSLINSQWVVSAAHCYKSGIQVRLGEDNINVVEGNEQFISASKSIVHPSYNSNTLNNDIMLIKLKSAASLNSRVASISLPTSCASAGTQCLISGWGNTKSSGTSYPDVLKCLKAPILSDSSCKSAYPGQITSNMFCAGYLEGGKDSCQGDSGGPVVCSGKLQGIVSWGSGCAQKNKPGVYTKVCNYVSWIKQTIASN

In patent US20110288005A1 (AMUNIX OPERATING INC A DELWARE, published 2011):

B1: aaT-XTEN_AM875 (other)
chain: MAEDPQGDAAQKTDTSHHDQDHPTFNKITPNLAEFAFSLYRQLAHQSNSTNIFFSPVSIATAFAMLSLGTKADTHDEILEGLNFNLTEIPEAQIHEGFQELLRTLNQPDSQLQLTTGNGLFLSEGLKLVDKFLEDVKKLYHSEAFTVNFGDTEEAKKQINDYVEKGTQGKIVDLVKELDRDTVFALVNYIFFKGKWERPFEVKDTEEEDFHVDQVTTVKVPMMKRLGMFNIQHCKKLSSWVLLMKYLGNATAIFFLPDEGKLQHLENELTHDIITKFLENEDRRSASLHLPKLSITGTYDLKSVLGQLGITKVFSNGADLSGVTEEAPLKLSKAVHKAVLTIDEKGTEAAGAMFLEAIPMSIPPEVKFNKPFVFLMIEQNTKSPLFMGKVVNPTQKGGTSTEPSEGSAPGSEPATSGSETPGSPAGSPTSTEEGSTSSTAESPGPGTSTPESGSASPGSTSESPSGTAPGSTSESPSGTAPGTSTPESGSASPGTSTPESGSASPGSEPATSGSETPGTSESATPESGPGSPAGSPTSTEEGTSTEPSEGSAPGTSESATPESGPGTSTEPSEGSAPGTSTEPSEGSAPGSPAGSPTSTEEGTSTEPSEGSAPGTSTEPSEGSAPGTSESATPESGPGTSESATPESGPGTSTEPSEGSAPGTSTEPSEGSAPGTSESATPESGPGTSTEPSEGSAPGSEPATSGSETPGSPAGSPTSTEEGSSTPSGATGSPGTPGSGTASSSPGSSTPSGATGSPGTSTEPSEGSAPGTSTEPSEGSAPGSEPATSGSETPGSPAGSPTSTEEGSPAGSPTSTEEGTSTEPSEGSAPGASASGAPSTGGTSESATPESGPGSPAGSPTSTEEGSPAGSPTSTEEGSTSSTAESPGPGSTSESPSGTAPGTSPSGESSTAPGTPGSGTASSSPGSSTPSGATGSPGSSPSASTGTGPGSEPATSGSETPGTSESATPESGPGSEPATSGSETPGSTSSTAESPGPGSTSSTAESPGPGTSPSGESSTAPGSEPATSGSETPGSEPATSGSETPGTSTEPSEGSAPGSTSSTAESPGPGTSTPESGSASPGSTSESPSGTAPGTSTEPSEGSAPGTSTEPSEGSAPGTSTEPSEGSAPGSSTPSGATGSPGSSPSASTGTGPGASPGTSSTGSPGSEPATSGSETPGTSESATPESGPGSPAGSPTSTEEGSSTPSGATGSPGSSPSASTGTGPGASPGTSSTGSPGTSESATPESGPGTSTEPSEGSAPGTSTEPSEGSAP
B2: XTEN_AM923-aaT (other)
chain: MAEPAGSPTSTEEGASPGTSSTGSPGSSTPSGATGSPGSSTPSGATGSPGTSTEPSEGSAPGSEPATSGSETPGSPAGSPTSTEEGSTSSTAESPGPGTSTPESGSASPGSTSESPSGTAPGSTSESPSGTAPGTSTPESGSASPGTSTPESGSASPGSEPATSGSETPGTSESATPESGPGSPAGSPTSTEEGTSTEPSEGSAPGTSESATPESGPGTSTEPSEGSAPGTSTEPSEGSAPGSPAGSPTSTEEGTSTEPSEGSAPGTSTEPSEGSAPGTSESATPESGPGTSESATPESGPGTSTEPSEGSAPGTSTEPSEGSAPGTSESATPESGPGTSTEPSEGSAPGSEPATSGSETPGSPAGSPTSTEEGSSTPSGATGSPGTPGSGTASSSPGSSTPSGATGSPGTSTEPSEGSAPGTSTEPSEGSAPGSEPATSGSETPGSPAGSPTSTEEGSPAGSPTSTEEGTSTEPSEGSAPGASASGAPSTGGTSESATPESGPGSPAGSPTSTEEGSPAGSPTSTEEGSTSSTAESPGPGSTSESPSGTAPGTSPSGESSTAPGTPGSGTASSSPGSSTPSGATGSPGSSPSASTGTGPGSEPATSGSETPGTSESATPESGPGSEPATSGSETPGSTSSTAESPGPGSTSSTAESPGPGTSPSGESSTAPGSEPATSGSETPGSEPATSGSETPGTSTEPSEGSAPGSTSSTAESPGPGTSTPESGSASPGSTSESPSGTAPGTSTEPSEGSAPGTSTEPSEGSAPGTSTEPSEGSAPGSSTPSGATGSPGSSPSASTGTGPGASPGTSSTGSPGSEPATSGSETPGTSESATPESGPGSPAGSPTSTEEGSSTPSGATGSPGSSPSASTGTGPGASPGTSSTGSPGTSESATPESGPGTSTEPSEGSAPGTSTEPSEGSAPGEDPQGDAAQKTDTSHHDQDHPTFNKITPNLAEFAFSLYRQLAHQSNSTNIFFSPVSIATAFAMLSLGTKADTHDEILEGLNFNLTEIPEAQIHEGFQELLRTLNQPDSQLQLTTGNGLFLSEGLKLVDKFLEDVKKLYHSEAFTVNFGDTEEAKKQINDYVEKGTQGKIVDLVKELDRDTVFALVNYIFFKGKWERPFEVKDTEEEDFHVDQVTTVKVPMMKRLGMFNIQHCKKLSSWVLLMKYLGNATAIFFLPDEGKLQHLENELTHDIITKFLENEDRRSASLHLPKLSITGTYDLKSVLGQLGITKVFSNGADLSGVTEEAPLKLSKAVHKAVLTIDEKGTEAAGAMFLEAIPMSIPPEVKFNKPFVFLMIEQNTKSPLFMGKVVNPTQK

Legend:
[1] = target: T1, bovine pancreatic trypsin (Sigma T1426) (bovine, UniProt P00760); experiment: cell-based or functional assay
[2] = target: T1, bovine pancreatic trypsin (Sigma T1426); experiment: cell-based or functional assay; remark: listed apart in the source

Row | Binder | % Activity (compared to aaT positive control) [1] | Activity units (-ΔVi/µM) [1] | IC50 (µM), equilibrium trypsin inhibition assay [2]
1 | B1 | 84% | 0.057 -ΔVi/µM | 0.48 µM
2 | B2 | 80% | 0.054 -ΔVi/µM | 
